Laboratory results published in ChEMBL document CHEMBL1130062 (J Med Chem, 1997).

The compounds below were run against T1, Dihydrofolate reductase (Pneumocystis carinii, UniProt P16184).
T1 sequence (P16184 whole entry): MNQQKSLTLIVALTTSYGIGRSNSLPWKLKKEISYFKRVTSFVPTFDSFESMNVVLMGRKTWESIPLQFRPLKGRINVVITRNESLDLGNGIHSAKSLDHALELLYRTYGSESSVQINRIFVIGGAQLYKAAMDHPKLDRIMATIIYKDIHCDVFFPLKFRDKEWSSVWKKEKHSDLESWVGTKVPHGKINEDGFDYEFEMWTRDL

Structure (SMILES) | IC50
CCc1nc(N)nc(N)c1-c1ccc(Cl)c(/N=N/N(CCOC)CCOC)c1 | 0.91 µM
CCc1nc(N)nc(N)c1-c1ccc(Cl)c(/N=N/N2CCOCC2)c1 | 1.7 µM
CCc1nc(N)nc(N)c1-c1ccc(Cl)c(N/N=N\C)c1 | 4.6 µM
CCc1nc(N)nc(N)c1-c1ccc(Cl)c(/N=N/N(C)CCN(CC)CC)c1 | 18.2 µM
